The source of these data is ChEMBL document CHEMBL1148847, “Synthesis of 3-(1H-benzimidazol-2-yl)-5-isoquinolin-4-ylpyrazolo[1,2-b]pyridine, a potent cyclin dependent kinase 1 (CDK1) inhibitor” (Bioorg Med Chem Lett, 2007).

The assay is filed under the species Homo sapiens. Put plainly: Selectivity for CDK1 over VEGFR2.

`c1ccc2c(-c3cnc4[nH]nc(-c5nc6ccccc6[nH]5)c4c3)cncc2c1`: the Fold change turned out to be 60.
